Counter-ions that a name gives are not always drawn. Where a SMILES comes first, the peptide text is derived from it.
System: lipase
Assay: Lipase/lipolysis assay (EnzChek Lipase Substrate, quenched BODIPY-fatty acid conjugate) on stored human milk
[1] = Food Additive Library compound added to fresh human milk, stored 1 week at −20° C., thawed at room temperature, RFU of <400 considered a hit
[2] = Food-Sourced Compound Library compound added to fresh human milk, stored 1 week at −20° C., thawed at room temperature, RFU <400 considered a hit
[3] = compound added to fresh human milk, stored 1 week at −20° C., thawed at room temperature, RFU <400 considered a hit
[4] = Biolog PM1 compound added to fresh human milk, stored 1 week at −20° C., RFU <400 = hit
[5] = Biolog PM5 compound added to fresh human milk, stored 1 week at −20° C., RFU <400 = hit
[6] = Biolog PM4 compound added to fresh human milk, stored 1 week at −20° C., RFU <400 = hit
[7] = Biolog PM2a compound added to fresh human milk, stored 1 week at −20° C., RFU <400 = hit

Compound	Lipase (RFU) [1]	Lipase (RFU) [3]	further results
c1ccc(SSc2ccccc2)cc1 [Diphenyl disulfide]	815.9417 RFU	–	–
O=c1ccc2ccc(O)c(O)c2o1 [Daphnetin]	–	–	Lipase (RFU) [2]: 1198.778 RFU
O=C(O)C(O)Cc1ccccc1 (racemic) [DL-3-Phenyllactic acid]	–	–	Lipase (RFU) [2]: 814.8931 RFU
O=P(O)(O)OC[C@H](O)CO [sn-Glycerol 3-phosphate]	–	1219.971 RFU	–
tocopherol [Vitamin E]	–	–	Lipase (RFU) (Table 7, 500 μg/mL (vitamin C, E, carbonate/bicarbonates), human milk stored 1 week at −20° C., inhibited if RFU <400): 656.444 RFU
C[C@@H]1CC[C@@]2(OC1)O[C@H]1C[C@H]3[C@@H]4CC=C5C[C@@H](O)CC[C@]5(C)[C@H]4CC[C@]3(C)[C@H]1[C@@H]2C [Diosgenin]	–	1107.594 RFU	–
COc1cc(/C=C/C(=O)O)ccc1O.[Na] [Ferulic acid (sodium)]	842.3693 RFU	–	–
CC(C)=CCC[C@](C)(O)[C@@H]1CC=C(C)CC1 [alpha-Bisabolol]	653.6185 RFU	–	–
O=C(O)CC(Br)C(=O)O (stereo not shown) [Bromo Succinic Acid]	–	–	Lipase (RFU) [4]: 1206.804 RFU
O=C(O)c1ccc(C(=O)O)cc1 [Terephthalic acid]	–	–	Lipase (RFU) [2]: 866.3788 RFU
N=C(N)N [Guanidine (hydrochloride)]	–	–	Lipase (RFU) [2]: 1252.71 RFU
C/C=C(/C)C(=O)O[C@H]1Cc2cc3ccc(=O)oc3cc2OC1(C)C [Decursinol angelate]	–	–	Lipase (RFU) [2]: 819.0637 RFU
CC[C@H](CC[C@@H](C)[C@H]1CC[C@H]2[C@@H]3CC=C4C[C@@H](O[C@@H]5O[C@H](CO)[C@@H](O)[C@H](O)[C@H]5O)CC[C@]4(C)[C@H]3CC[C@]12C)C(C)C [Daucosterol]	–	990.8025 RFU	–
CNCC(O)c1ccc(O)cc1 (stereo not shown) [Synephrine]	–	1134.338 RFU	–
CCCC(N)C(=O)O (racemic) [DL-Norvaline]	–	939.3139 RFU	–
C=CC1=C(C)c2cc3[n-]c(cc4[n-]c(cc5nc(cc1n2)C(C)=C5C=C)c(C)c4CCC(=O)O)c(CCC(=O)O)c3C.O.[Fe+2] [Hematin]	–	–	Lipase (RFU) [5]: 854.3329 RFU
N[C@@H](CCSC[C@H](N)C(=O)O)C(=O)O [Cystathionine]	–	–	Lipase (RFU) [6]: 980.1408 RFU
CSCCC(N)C(=O)O (racemic) [DL-Methionine]	957.9009 RFU	657.4944 RFU	–
NCC(O)c1ccc(O)cc1 (stereo not shown) [Octopamine (hydrochloride)]	–	809.8041 RFU	–
C[C@@H](O)[C@@H](N)C(=O)O [D-Allothreonine]	–	–	Lipase (RFU) [2]: 901.7798 RFU
CCCCC(C)C(=O)O (stereo not shown) [2-Methylhexanoic acid]	923.3324 RFU	–	–
OC[C@H]1O[C@@](CO)(O[C@H]2O[C@H](CO)[C@@H](O)[C@H](O)[C@H]2O)[C@@H](O)[C@@H]1O [Sucrose]	–	–	Lipase (RFU) [4]: 979.1753 RFU
Cc1cncc(C)n1 [2,6-Dimethylpyrazine]	824.3061 RFU	–	–

Compound	Lipase (RFU) [1]	Lipase (RFU) [3]	further results
Cc1ncc(C[n+]2csc(CCO[P@](=O)(O)OP(=O)(O)O)c2C)c(N)n1 [Thiamine pyrophosphate]	–	–	Lipase (RFU) [2]: 823.7716 RFU
CO[C@H]1[C@H](O)[C@@H](O)[C@@H](O)[C@@H](O)[C@@H]1O [Sequoyitol]	–	997.9244 RFU	–
Cn1c(=O)[nH]c2nc[nH]c2c1=O [Compound 1-Methylxanthine, 1-Methylxanthine]	–	907.9205 RFU	–
O=[N+]([O-])c1ccc(O)c(O)c1 [Compound 4-Nitrocatechol, 4-Nitrocatechol]	–	1062.242 RFU	–
C[C@]12CC[C@@H]3c4ccc(O)cc4CC[C@H]3[C@@H]1C[C@@H](O)[C@@H]2O [Estriol]	–	–	Lipase (RFU) [2]: 1058.345 RFU
O=C1C[C@@H](c2ccccc2)Oc2cc(O)cc(O)c21 [Pinocembrin]	–	–	Lipase (RFU) [2]: 1308.016 RFU
Nc1nc2c(ncn2[C@@H]2O[C@H](CO)[C@@H](OP(=O)(O)O)[C@H]2O)c(=O)[nH]1 [Guanosine-3′-monophosphate]	–	–	Lipase (RFU) [6]: 1064.116 RFU
NCCCC[C@H](NC1(CO)O[C@H](CO)[C@@H](O)[C@@H]1O)C(=O)O (stereo partly shown) [Fructosyl-lysine]	–	1233.156 RFU	–
O=C(/C=C/c1ccc(O)cc1)c1ccc(O)cc1O [Isoliquiritigenin]	–	1317.553 RFU	–
O=C1O[C@H]([C@@H](O)CO)C(O)=C1O [L-Ascorbic acid]	707.8035 RFU	–	–
CC1=CC(=O)CC(C)(C)C1 [Isophorone]	775.739 RFU	1116.305 RFU	–
Cn1ccc(=O)n(C)c1=O [1,3-Dimethyluracil]	–	–	Lipase (RFU) [2]: 1001.839 RFU
NCC(=O)NCC(=O)O [Glycylglycine] (H-Gly-Gly-OH)	–	–	Lipase (RFU) [2]: 704.4034 RFU
CNc1nc2c(ncn2[C@@H]2O[C@H](CO)[C@@H](O)[C@H]2O)c(=O)[nH]1 [Compound N2-Methylguanosine, N2-Methylguanosine]	–	1090.144 RFU	–
C#C[C@]1(O)CC[C@H]2[C@@H]3CCc4cc(O)ccc4[C@H]3CC[C@@]21C [Ethynyl Estradiol]	–	1110.911 RFU	–
O=C(O)CP(=O)(O)O [Phosphono Acetic Acid]	–	–	Lipase (RFU) [6]: 973.2717 RFU
CCCCOC(=O)CCCCCCCCC(=O)OCCCC [Dibutyl sebacate]	630.2081 RFU	–	–
CC1OCCC1=O (stereo not shown) [2-Methyltetrahydrofuran-3-one]	1091.025 RFU	–	–
O=C(O)CCCCC(=O)O [Adipic acid]	793.5413 RFU	1106.278 RFU	–
O=C(O)CCCC[C@@H]1SC[C@@H]2NC(=O)N[C@@H]21 [D-Biotin]	–	–	Lipase (RFU) [5]: 697.9239 RFU
COc1c(-c2ccc(O)c(O)c2)oc2cc(O)cc(O)c2c1=O [3-O-Methylquercetin]	–	–	Lipase (RFU) [2]: 1189.372 RFU
COc1cc(/C=C/C=O)ccc1O [Coniferaldehyde]	–	–	Lipase (RFU) [2]: 1169.824 RFU
O=C(O)CCCCCC(=O)O [Pimelic acid]	–	945.6384 RFU	–

Compound	Lipase (RFU) [1]	Lipase (RFU) [3]	further results
C/C=C(\C)C(=O)O [Tiglic acid]	1078.568 RFU	1059.35 RFU	–
N=C(N)NCCCC(=O)O [4-Guanidinobutanoic acid]	–	–	Lipase (RFU) [2]: 846.7738 RFU
CC(C)[C@H](N)C(=O)O [L-Valine]	731.7445 RFU	–	Lipase (RFU) [7]: 825.5247 RFU; Lipase (RFU) [5]: 1052.532 RFU; Lipase (RFU) [2]: 688.2338 RFU
OC[C@H]1O[C@@H](OCCc2ccc(O)cc2)[C@H](O)[C@@H](O)[C@@H]1O [Salidroside]	–	–	Lipase (RFU) [2]: 703.1377 RFU
CSCC[C@H](N)C(=O)O [L-Methionine]	1119.509 RFU	–	Lipase (RFU) [7]: 910.747 RFU; Lipase (RFU) [6]: 997.9974 RFU; Lipase (RFU) [5]: 992.2289 RFU; Lipase (RFU) [2]: 974.8047 RFU
OC[C@H]1O[C@@H](n2cnc3c(O)ncnc32)C[C@@H]1O [2′-Deoxyinosine]	–	–	Lipase (RFU) [2]: 1081.215 RFU
CC(=O)NCCc1c[nH]c2ccc(O)cc12 [N-Acetyl-5-hydroxytryptamine]	–	1040.161 RFU	–
C=C(OP(=O)(O)O)C(=O)O [Phosphoenol Pyruvate]	–	–	Lipase (RFU) [6]: 858.9337 RFU
CCCCCC1C(=O)CCC1CC(=O)OC (stereo not shown) [Methyl dihydrojasmonate]	1041.908 RFU	916.1332 RFU	–
Nc1c(O)cccc1C(=O)O [3-Hydroxyanthranilic acid]	–	–	Lipase (RFU) [2]: 696.0713 RFU
COC(=O)[C@H](Cc1ccccc1)NC(=O)[C@@H](N)CC(=O)O [Aspartame] (H-Asp-Phe-OMe)	1041.59 RFU	–	–
CC(=O)c1ccc[nH]1 [Compound 2-Acetylpyrrole, 2-Acetylpyrrole]	989.2956 RFU	–	–
C=C1C[C@@]2(O)O[C@@]3(C[C@H]2C(C)C)[C@@H](C)CC[C@@H]13 [Curcumol]	–	1045.93 RFU	–
Cc1cnc(C)c(C)n1 [2,3,5-Trimethylpyrazine]	869.7604 RFU	–	–
COc1cc(C(=O)O)ccc1O [Vanillic acid]	1052.276 RFU	–	–
Lysozyme from chicken egg white	739.4473 RFU	–	–
CC(=O)OC/C=C(C)/C=C/C=C(C)/C=C/C1=C(C)CCCC1(C)C [Retinyl acetate]	989.0064 RFU	–	–
COc1ccc(C=CC=O)cc1 [4-Methoxycinnamaldehyde]	845.4305 RFU	–	–
CCOC(=O)CC(=O)O [3-Ethoxy-3-oxopropanoic acid]	–	1065.464 RFU	–
O=c1cc(-c2ccc(O)cc2)oc2cc(O)c([C@@H]3O[C@H](CO)[C@@H](O)[C@H](O)[C@H]3O)c(O)c12 [Isovitexin]	–	851.2752 RFU	–
CC(CCC(=O)NCC(=O)O)C1CCC2C3CCC4CC(O)CCC4(C)C3CC(O)C12C (stereo not shown) [Glycodeoxycholic Acid]	–	–	Lipase (RFU) [2]: 959.2681 RFU

— patent publication US12507703B2, “Methods, devices and compositions for preserving human milk” (The Trustees of Princeton University, priority 2023, dated 2025)
